From patent publication US20240009173A1, “Use of 5-HT3-Targeting Drugs for Treatment of Acute Kidney Injury” (priority 2020, published 2024)

Key:
ICU patients with AKI = test system: ICU patients with AKI; parameters: key: Y has clinical trials and/or literature support; N has no clinical trials and/or literature support; settings: cited from earlier work
patients with AKI [1] = test system: patients with AKI; parameters: species or system human; settings: in vivo
patients with AKI [2] = settings: human, in vivo
patients with AKI [3] = settings: human, in vivo; remark: listed apart in the source
all ICU patients = test system: all ICU patients; parameters: key: Y has clinical trials and/or literature support; N has no clinical trials and/or literature support; settings: cited from earlier work

Compound: CN1CC[C@]23c4c5ccc(O)c4O[C@H]2C(=O)CC[C@H]3[C@H]1C5 [Hydromorphone]
- Reported for protecting effect in ICU patients with AKI (ICU patients with AKI): N
- Coefficient (patients with AKI [1]): −0.024
- Death rate in eICU database (patients with AKI [2]): 141.20 per 1,000 patients
- Death rate in MIMIC III database (patients with AKI [3]): 166.18 per 1,000 patients
- Reported for protecting effect in all ICU patients (all ICU patients): N
